Data as given in PubChem BioAssay AID588674 (Broad Institute, 2011).
The list shows a part of the results, in another mix than the full data. Some salts or complexes appear as unconnected parts, following the source record. The source made the active and inactive calls.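 The calls were made as follows: active = mean inhibition of at least 75% with every replicate also reaching 75%; inconclusive = mean inhibition at least 75% but some replicate below; inactive = mean inhibition below 75%.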

Assay: Shn3 3'UTR reporter decrease in osteoblasts – cell-based, Clone20 osteoblasts, firefly luciferase, set 2, Schnurri-3 inhibitor project, primary screen (AID 588674);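 also: 0% = median of neutral control wells and 100% = pilot-screen positive control compound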
Settings: Clone20 osteoblast Shn3 3'UTR firefly luciferase, 24 h; at 12.5 µM; active compounds read high

Row | SMILES | inhibition
1 | O=C(OCCCN1CCCC1)C(O)(c1ccccc1)C1CCCCC1 (stereo unspecified) | inactive: -2.96%
2 | COc1ccccc1OP(C)(=O)Nc1c(C)n(C)n(-c2ccccc2)c1=O (stereo unspecified) | inactive: -32.1%
3 | CCc1ccc(OP(C)(=O)Nc2cccnc2)cc1 (stereo unspecified) | inactive: -5.25%
4 | CP(=O)(Oc1ccccc1)N1CCOC1=O (stereo unspecified) | inactive: -21.1%
5 | COc1ccc(OP(C)(=O)Nc2ccc(Br)cc2)cc1 (stereo unspecified) | inactive: -2.91%
6 | CCN(CC)CC(O)COC(=O)C(O)(c1ccccc1)C1CCCCC1 (stereo unspecified) | inactive: -7.91%
7 | CN(C)C(=O)c1c([N+](=O)[O-])cc([N+](=O)[O-])cc1[N+](=O)[O-] | inactive: 17.7%
8 | COc1ccccc1OP(C)(=O)Nc1ccccc1Br (stereo unspecified) | inactive: -10.8%
9 | CC(C)(C)c1ccc(OP(C)(=O)O)cc1 | inactive: 0.114%
10 | CP(=O)(Nc1ccc(Cl)cc1)Oc1ccc(F)cc1 (stereo unspecified) | inactive: -4.2%
11 | CCOC(=O)c1ccc(NP(C)(=O)Oc2ccc(Cl)cc2)cc1 (stereo unspecified) | inactive: 4.34%
12 | CP(=O)(OC12CC3CC(CC(C3)C1)C2)OC12CC3CC(CC(C3)C1)C2 | inactive: 0.478%
13 | COc1ccccc1OP(C)(=O)Nc1ccc(C)c(C)c1 (stereo unspecified) | inactive: -16.5%
14 | COc1ccc(OP(C)(=O)Nc2ccccc2Br)cc1 (stereo unspecified) | inactive: -5.47%
15 | Cc1cc(C)cc(OP(C)(=O)Nc2cccc(C(F)(F)F)c2)c1 (stereo unspecified) | inactive: 24.5%
16 | O=C1C(O)=C([N+](=O)[O-])C(=O)C(O)=C1[N+](=O)[O-] | inactive: 17.1%
17 | CCCCCCCCCCCCCCCC1C[N+](C)(C)CCOP(C)(=O)O1 (stereo unspecified) | inactive: -4.62%
18 | CP(=O)(Nc1ccc(Cl)cc1Cl)Oc1ccccc1 (stereo unspecified) | inactive: -4.81%
19 | CP(=O)(OCCOc1ccccc1)OCCOc1ccccc1 | inactive: -0.212%
20 | COc1ccc(OP(C)(=O)Nc2ccccn2)cc1 (stereo unspecified) | inactive: 2.64%
21 | CN(C)CCOC(=O)C(O)(c1ccccc1)C1CCCC1 (stereo unspecified) | inactive: 4.59%
22 | COc1ccccc1OP(C)(=O)Nc1ccc(Br)cc1 (stereo unspecified) | inactive: -21.3%
23 | COc1ccccc1OP(C)(=O)Nc1ccc(C)cc1C (stereo unspecified) | inactive: -6.53%

Row | SMILES | inhibition
24 | CP(=O)(Nc1ccccn1)Oc1ccccc1 (stereo unspecified) | inactive: -11.5%
25 | CCc1ccc(OP(C)(=O)O)cc1 | inactive: 1.62%
26 | Cc1c(NP(C)(=O)Oc2ccc(C(C)C)cc2)c(=O)n(-c2ccccc2)n1C (stereo unspecified) | active: 97.2%
27 | O=[N+]([O-])c1cc([N+](=O)[O-])c(Nc2ccccn2)c([N+](=O)[O-])c1 | inactive: 51.6%
28 | CP(=O)(Nc1ccccc1F)Oc1ccccc1 (stereo unspecified) | inactive: 3.42%
29 | CC(C)c1ccc(OP(C)(=O)Nc2ccc(SC(F)(F)F)cc2)cc1 (stereo unspecified) | inactive: 16.3%
30 | O=[N+]([O-])c1cc([N+](=O)[O-])c(Nc2ccc(Cl)cc2)c([N+](=O)[O-])c1 | inactive: 75.7%
31 | COc1ccc2c(c1O)-c1c(O)c(OC)cc3c1[C@H](C2)[N+](C)(C)CC3.O=[N+]([O-])c1cc([N+](=O)[O-])c([O-])c([N+](=O)[O-])c1[O-] | inactive: 6.48%
32 | O=C(OC1CN2CCC1CC2)c1ccc([N+](=O)[O-])cc1 (stereo unspecified) | inactive: 10.8%
33 | O=C(OCCN1CCN(CCOCc2ccccc2)CC1)C(O)(c1ccccc1)c1ccccc1 | inactive: 19.8%
34 | CCOC(=O)c1ccc(NP(C)(=O)Oc2ccc(F)cc2)cc1 (stereo unspecified) | inactive: -22.7%
35 | COc1ccc(OP(C)(=O)Nc2ccc(SC(F)(F)F)cc2)cc1 (stereo unspecified) | inactive: -3.92%
36 | CP(=O)(Nc1ccccc1)Oc1ccc(F)cc1 (stereo unspecified) | inactive: 0.786%
37 | O=[N+]([O-])c1cc([N+](=O)[O-])c(OC2CCCCC2O)c([N+](=O)[O-])c1 (stereo unspecified) | inactive: -8.37%
38 | Cc1c([N+](=O)[O-])cc([N+](=O)[O-])c(Br)c1[N+](=O)[O-] | inactive: 0.737%
39 | CCN(CC)CCCOC(=O)C(O)(c1ccccc1)C1CCCCC1 (stereo unspecified) | inactive: -4.9%
40 | CN(C)CCOC(=O)C(O)(c1ccccc1)C1CCCCC1 (stereo unspecified) | inactive: 15.8%
41 | COc1ccc(NP(C)(=O)Oc2ccccc2OC)cc1 (stereo unspecified) | inactive: 17.4%
42 | COc1ccc(OP(C)(=O)Nc2cccc(Br)c2)cc1 (stereo unspecified) | inactive: -35.1%
43 | Cc1c(C(c2ccc3c(c2)OCO3)c2c(C)n(C)n(-c3ccccc3)c2=O)c(=O)n(-c2ccccc2)n1C.O=[N+]([O-])c1cc([N+](=O)[O-])c(O)c([N+](=O)[O-])c1 | inactive: -4.97%
44 | O=[N+]([O-])c1ccc(OP2(=O)COCCO2)cc1 (stereo unspecified) | inactive: 0.396%
45 | O=[N+]([O-])c1cc([N+](=O)[O-])c(NCC2CCS(=O)(=O)C2)c([N+](=O)[O-])c1 (stereo unspecified) | inactive: 8.04%
46 | Cc1cc(-c2cccc3ccccc23)c(C)cn1.O=[N+]([O-])c1cc([N+](=O)[O-])c(O)c([N+](=O)[O-])c1 | inactive: 5.36%

Row | SMILES | inhibition
47 | CCOP(C)(=S)SCC(=O)NC(C)(CC)C(=O)O (stereo unspecified) | inactive: -4.38%
48 | CP(=O)(Nc1ccc(SC(F)(F)F)cc1)Oc1ccc(F)cc1 (stereo unspecified) | inactive: 6.23%
49 | Cc1ccccc1NP(C)(=O)Nc1ccccc1C | inactive: 2.08%
50 | CN(Cc1cccnc1)C(=O)COc1ccc(Cl)c(Cl)c1.O=[N+]([O-])c1cc([N+](=O)[O-])c(O)c([N+](=O)[O-])c1 | inactive: 0.443%
51 | O=[N+]([O-])c1cc([N+](=O)[O-])c(-n2nnc3ccccc32)c([N+](=O)[O-])c1 | inactive: -10.7%
52 | Cc1nc2ccc3ccccc3c2s1.O=[N+]([O-])c1cc([N+](=O)[O-])c(O)c([N+](=O)[O-])c1 | inactive: 1.99%
53 | O=[N+]([O-])c1cc([N+](=O)[O-])c(-c2cnn(-c3ccccc3)c2)c([N+](=O)[O-])c1 | inactive: 9.31%
54 | CCOC(=O)C(CC)C1=NC(C)(C)Cc2ccccc21.O=[N+]([O-])c1cc([N+](=O)[O-])c(O)c([N+](=O)[O-])c1 (stereo unspecified) | inactive: 11.1%
55 | CC1=C2N=C(C=C3N=C(C(C)=C4[N-][C@@](C)([C@@H]5N=C1[C@](C)(CCC(=O)NC[C@@H](C)OP(=O)([O-])O[C@H]1[C@@H](O)[C@@H](n6cnc7cc(C)c(C)cc76)O[C@@H]1CO)[C@H]5CC(N)=O)[C@@](C)(CC(N)=O)[C@@H]4CCC(N)=O)[C@@](C)(CC(N)=O)[C@@H]3CCC(N)=O)C(C)(C)[C@@H]2CCC(N)=O.[C-]#N.[Co+3] | inactive: 0.0035%
56 | O=[N+]([O-])c1cc([N+](=O)[O-])c(Nc2nnnn2CCO)c([N+](=O)[O-])c1 | inactive: -0.474%
57 | CCCOc1ccc(NP(C)(=O)Oc2ccc(Cl)cc2)cc1 (stereo unspecified) | inactive: -6.75%
58 | CP(=O)(Nc1ccc(SC(F)(F)F)cc1)Oc1ccccc1 (stereo unspecified) | inactive: 30.6%
59 | CN1CCCCC1COC(=O)C1(O)c2ccccc2CCc2ccccc21 (stereo unspecified) | inactive: 1.22%
60 | COc1ccccc1OP(C)(=O)Nc1c(C)cccc1C (stereo unspecified) | inactive: -8.03%
61 | CC1=NCCc2c1[nH]c1ccccc21.O=[N+]([O-])c1cc([N+](=O)[O-])c(O)c([N+](=O)[O-])c1 | inactive: 0.188%
62 | CCOC(=O)c1ccc(NP(C)(=O)Oc2cc(C)cc(C)c2)cc1 (stereo unspecified) | inactive: -8.62%
63 | Cc1cc(C)cc(OP(C)(=O)Nc2ccc(C)cc2C)c1 (stereo unspecified) | inactive: -21%
64 | COc1ccccc1OP(C)(=O)Nc1cccc(Br)c1 (stereo unspecified) | inactive: -1.95%
65 | Cc1ccc(C)c(NP(C)(=O)Oc2ccccc2)c1 (stereo unspecified) | inactive: 13.7%
66 | Cc1cc(C)cc(OP(C)(=O)Nc2ccccn2)c1 (stereo unspecified) | inactive: 13.1%
67 | CP(=O)(Nc1cccc(Br)c1)Oc1ccccc1 (stereo unspecified) | inactive: 1.26%
68 | CCN(CC)CCCOC(=O)C(O)(c1ccccc1)c1ccccc1 | inactive: -8.23%
69 | O=[N+]([O-])c1ccc2c(c1)C=Nc1ccccc1O2 | inactive: -9.16%

Row | SMILES | inhibition
70 | Cc1cccc(C)c1OP(C)(N)=O (stereo unspecified) | inactive: -9.47%
71 | CC(C)(C)c1ccc(OP(C)(=O)Nc2ccc(SC(F)(F)F)cc2)cc1 (stereo unspecified) | inactive: -5.33%
72 | O=[N+]([O-])c1cc([N+](=O)[O-])c(Nc2cccnc2)c([N+](=O)[O-])c1 | inactive: -2.04%
73 | Cc1cc(C)cc(OP(C)(N)=O)c1 (stereo unspecified) | inactive: -12%
74 | COc1ccc(OP(C)(=O)Nc2cccc(F)c2)cc1 (stereo unspecified) | inactive: 10.9%
75 | COc1ccccc1OP(C)(=O)Nc1cc(Cl)ccc1C (stereo unspecified) | inactive: -5.09%
76 | Cc1ccc(NP(C)(=O)Oc2ccccc2)c(C)c1 (stereo unspecified) | inactive: -17.4%
77 | COc1ccccc1OP(C)(=O)Nc1ccc(C)cc1 (stereo unspecified) | inactive: -2.16%
78 | CCOC(=O)c1ccc(NP(C)(=O)Oc2ccccc2)cc1 (stereo unspecified) | inactive: -11%
79 | CP(=O)(Nc1ccccc1Br)Oc1ccccc1 (stereo unspecified) | inactive: 2.8%
80 | COc1ccccc1OP(C)(=O)Nc1ccccc1 (stereo unspecified) | inactive: 11.7%
81 | CP(=S)(Nn1cnnc1)Oc1ccccc1 (stereo unspecified) | inactive: 0.603%
82 | Cc1cc(C)cc(OP(C)(=O)Nc2ccc(SC(F)(F)F)cc2)c1 (stereo unspecified) | inactive: -4.71%
83 | CP(=O)(NC(=O)Nc1ccccc1)Oc1ccccc1 (stereo unspecified) | inactive: 3.74%
84 | CCc1ccc(OP(C)(=O)N2CCN(c3ccc([N+](=O)[O-])cc3)CC2)cc1 (stereo unspecified) | inactive: 34.8%
85 | CP(=O)(Oc1ccccc1)OC(c1ccccc1)C(F)(F)F (stereo unspecified) | inactive: 17.1%
86 | CP(=O)(Nc1ccc(SC(F)(F)F)cc1)Oc1ccc(Cl)cc1 (stereo unspecified) | inactive: -8.63%
87 | Cc1cccc(C)c1OP(C)(=O)Nc1ccc(SC(F)(F)F)cc1 (stereo unspecified) | inactive: 6.41%
88 | Cc1ccc(Nc2c([N+](=O)[O-])cc([N+](=O)[O-])cc2[N+](=O)[O-])cc1 | inactive: 12.9%
89 | CP(=O)(Nc1ccccn1)Oc1ccc(Cl)cc1 (stereo unspecified) | inactive: 3.48%
90 | CCOC(=O)c1ccc(NP(C)(=O)Oc2ccc(OC)cc2)cc1 (stereo unspecified) | inactive: 12.6%
91 | CCOP(C)(=S)SCC(=O)NC(C)C(=O)O (stereo unspecified) | inactive: -11%
